Patent US7547728B2, “Treating muscle wasting with selective androgen receptor modulators” (priority 2001, dated 2009)

Test system: seminal vesicles
Assay: Androgenic activity: seminal vesicle weight in male rats
Conditions: relative to TP

For `CC(=O)Nc1ccc(OC[C@](C)(O)C(=O)Nc2ccc([N+](=O)[O-])c(C(F)(F)F)c2)cc1` [Compound V], the “Relative Afficacy” value was 0.40 and the “Relative Potency” value was 0.22.
